# Experimental data from PubChem BioAssay AID651550 (National Center for Advancing Translational Sciences (NCATS), 2012).
# The entries are a selection whose mix differs from that of the whole data set. The source made the active and inactive calls. Cut-off read from the data, not from the text of the source: active = activity change below about -80%; inconclusive = mostly about -51% to -80%; inactive = weaker than that.
# Target: RAC-alpha serine/threonine-protein kinase (Homo sapiens) (UniProt P31749)
# Experiment: HTS Assay for Inhibitors of Akt Phophorylation: Primary Screen
# Conditions: Neuro2A IGF-stimulated pAkt S473 HTRF, 20 min; at 50 µM; hits give low values
# From the text: The serine/threonine protein kinase Akt (protein kinase B) regulates various cellular processes, including cell survival, growth, proliferation, migration and differentiation. It has been well established that Akt is activated through two essential steps involving membrane translocation and phosphorylation. Cytosolic Akt is recruited to the plasma membrane via the interaction between the PH domain and membrane PIP3 produced by phosphoinositide-3 kinase (PI3K) upon growth factor receptor stimulation. The membrane-Akt interaction results in conformational changes of Akt, enabling its activation through phosphorylation at T308 in the kinase domain and at S473 in the C-terminal hydrophobic motif by PDK1 and mTOR-rictor complex (mTORC2), respectively. […] These findings indicate that S473 phosphorylation, as an important modulator of Akt activation, may be a valuable drug target for cell growth, survival, proliferation and differentiation. These inhibitors also may have significant therapeutic potential with fewer side effects, especially for the conditions involving hyperactive Akt signaling, such as cancer and Alzheimer's disease.
# To this end, a miniaturized assay was developed to be screened against the Molecular Libraries Small Molecule Repository (MLSMR).
# NIH Chemical Genomics Center [NCGC]
# NIH Molecular Libraries Probe Centers Network [MLPCN]
# Assay Submitter (PI): Hee-Yong Kim, National Institute on Alcohol Abuse and Alcoholism
# 3 uL of Neuro2A cell suspension in DMEM containing 0.5% FBS and […] antibiotics mix was plated in a white solid bottom tissue culture-treated 1536-well plate (Greiner Bio-One, Monroe, NC) at 4,500 cells per well and incubated overnight at 37 deg C. 23 nL/well of compound solutions in DMSO was added with Pintool transfer (Kalypsis, San Diego, CA) at single […] final concentration. Then, the cells were stimulated with 1.5 uL of IGF (6 nM final concentration) and incubated at 37 deg C for 20 min. The reaction was terminated by the addition of 1.5 uL blocking reagent mixed with lysis buffer (1:25 correspondingly) provided with HTRF(R) Phospho Akt (Ser473) kit (Cisbio US, Bedford, MA), with following incubation for 50 min at ambient temperature. The detection HTRF conjugates from the kit were prepared according to the protocol, pre-mixed 1:1 prior to dispensing, and 2 uL/well was added with BioRAPTR FRD dispenser (Beckman Coulter). The assay plates were incubated for 24 hours at ambient temperature, and the HTRF fluorescence was measured using Envision plate reader (PerkinElmer) with excitation at 330nm, emission at 615nm (Eu(3)-Cryptate donor signal) and 665nm (d2 acceptor signal). The ratio of […] was calculated for each well.
# % is set by controls: 0 for no effect and ±100 for the full control effect.
row,SMILES,activity change
1,CCC(CO)(C(=O)OC1CN2CCC1CC2)c1ccccc1 (stereo not given),inactive: -2.03%
2,N/C(=N\O)c1c(N)no[n+]1[O-],inactive: 2.29%
3,N#CC1(Nc2ccccc2)CCN(CCc2ccccc2)CC1,inactive: 20.5%
4,O=C(NCC1(N2CCOCC2)CCCCC1)c1cc(=O)[nH]c2ccccc12,inactive: -1.47%
5,O=C(NCC1(N2CCOCC2)CCCCC1)c1cc2ccccc2o1,inactive: -1.13%
